According to PubChem BioAssay AID901 (National Center for Advancing Translational Sciences (NCATS), 2007):
The list shows a part of the results, in another mix than the full data. Inconclusive results are not listed. The source made the active and inactive calls. Calls come from the whole dose curve; as a rule, active = well fitted curve in the direction sought with a large enough effect in the signal ratio (not every such curve was filed as active); inconclusive = small, poorly fitted or top-dose-only effect, or a change in a side signal; inactive = no such curve, though single readings can be large or run the other way; the % refers to the signal ratio.
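Note: higher means more IMPase inhibition seen as more IP1 and lower FRET ratio.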

By UniProt entry, the sequences of proteins in these tests, tags left out.
UniProt P97697, whole entry: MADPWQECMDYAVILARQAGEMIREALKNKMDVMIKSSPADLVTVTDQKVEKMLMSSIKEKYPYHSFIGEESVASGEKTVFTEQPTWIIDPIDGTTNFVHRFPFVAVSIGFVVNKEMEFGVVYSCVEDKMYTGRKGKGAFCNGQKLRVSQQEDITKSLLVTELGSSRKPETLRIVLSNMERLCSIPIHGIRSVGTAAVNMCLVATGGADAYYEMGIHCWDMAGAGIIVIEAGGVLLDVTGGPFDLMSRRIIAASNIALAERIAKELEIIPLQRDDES

Each compound was assayed against Inositol monophosphatase 1 (Rattus norvegicus) (UniProt P97697) (assay: qHTS Assay for Identifying the Cell-Membrane Permeable IMPase Inhibitors). Conditions: CHO-M1 cells, HTRF TR-FRET ratio; at 46.1 µM (top of the series).
Text: NCGC IMPase Assay Overview
Lithium has been widely used for the treatment of bipolar disorder. But lithium has a narrow therapeutic index and it can cause side effects such as thirst, weight gain, tremor, polyuria and memory problems. Although the mechanism for lithium action in treatment of bipolar disorder is still not fully understood, inhibition of inositol monophosphatase (IMPase) and the subsequent depletion of the inositol pool in living cells have been implicated as the primary therapeutic benefit of lithium therapy. Therefore, a selective IMPase inhibitor with reduced side effects might be a good drug candidate to replace lithium for the treatment of bipolar disorder. Several IMPase inhibitors have been discovered previously. However, they are not suitable for therapeutic use because of their poor cell membrane penetrability or oral bioavailability; the development of new cell-permeable IMPase inhibitors is needed.
IMPase catalyzes the hydrolysis of inositol-1-phosphate (IP1) to release free inositol. Binding of an agonist to a Gq coupled GPCR results in the activation of PLC, which hydrolyzes the PIP2 to form inositol-1,4,5-trisphosphate (IP3) and diacyl glycerol (DAG). While DAG activates protein kinase C (PKC), IP3 triggers the elevation of intracellular free Ca2+. The IP3 is very rapidly inactivated by hydrolysis to IP2, IP1 and then inositol by a series of enzymes including IMPase. Free inositols are used for synthesis of PI and thus start another inositol cycle.
To identify new cell-permeable IMPase inhibitors, we developed a cell-based IMPase assay in which the cytosolic IP1 is measured by a time-resolved fluorescence resonance energy transfer (TR-FRET) assay. In this assay, an IP1 specific antibody is used to detect the labeled IP1 tracer. When the cell lysate contains the elevated IP1 due to the inhibition of IMPase, the TR-FRET between the labeled antibody and IP1 tracer is disrupted resulting in a reduction in the total signal. Since the TR-FRET is used, this cell-based assay is a homogenous assay without cell wash and medium change that is suitable for assay miniaturization and HTS.
NCGC IMPase Assay Protocol Summary
A Chinese hamster ovary (CHO) cell line stably expressing the M1 receptor (CHO-M1) was obtained from ATCC and maintained in F-12 Kaighn's media (Invitrogen, Carlsbad, CA, 21127) supplemented with 10 % FBS, 100 units/ml penicillin, 100 ug/ml streptomycin and 250 ug/ml geneticin at 37C, 5% CO2 in a humidified atmosphere. Before the assay, aliquots of cells were frozen and stored at -135C. The assay was performed in 1536-well format. Data are reported for both the ratio of the two emission wavelengths, and also for the component 'donor' channel, Em2=620. […] AC50 values were determined from concentration-response data modeled with the standard Hill equation.
IMPase 1536-well assay protocol:
(1) Plate 4 ul/well (2000 cells) of cell suspension from frozen CHO-M1 Cells in white, tissue culture treated 1536-well plates that are cultured at 37C, 5 % CO2 for 16 to 30 hours.
(2) Add 23 nl/well of compound in DMSO solution. The final titration for each compound was between 0.6 nM and 46 uM.
(3) Add 1 ul of carbachol (50 uM in stimulation buffer containing10mM HEPES, 1mM CaCl2, 0.5 mM MgCl2, 4.2 mM KCl, 146 mM NaCl, 5.5 mM glucose, 50mM LiCl, pH 7.4.
(4) Incubation at 37C, 5 % CO2 for 30 min.
(5) Add 1 ul/well of d2-conjugated IP1 (d2-IP1) and 1 ul/well of Eu+ cryptate conjugated anti-IP1 antibody (Eu+-Ab) prepared in the cell lysis buffer, both from the IP-One kit (Cisbio, MA).
(6) Incubate at room temperature for 10 minutes.
(7) Detect the assay plate (Ex = 320, Em1 =665 and Em2 620) in a ViewLux plate reader.
inositol monophosphatase, IMPase, IMPase inhibitor, lithium, bipolar disorder, IP-One, HTRF, qHTS, NIH roadmap, NCGC
Note: In the gene ID and protein GI references for this assay, rat IMPase is referenced instead of hampster as hamster accession numbers were not available.
`O=C(NCC1(N2CCOCC2)CCCCC1)c1cc2ccccc2o1` was tested, and the inhibition (IP1 accumulation) was inactive: 0.1%. For `O=C(OC1CN2CCC1CC2)C1c2ccccc2Oc2ccccc21` (centres undefined), the inhibition (IP1 accumulation) was inactive: 6.26%. In the case of `COc1ccc(NC2CCN(CCc3ccccc3)CC2)c(OC)c1`, the inhibition (IP1 accumulation) is reported as inactive: 11.9%. In the case of `N#CC1(Nc2ccccc2)CCN(CCc2ccccc2)CC1`, the inhibition (IP1 accumulation) is reported as inactive: 4.09%. `O=C(NCC1(N2CCOCC2)CCCCC1)c1cc(=O)[nH]c2ccccc12` was tested, and the inhibition (IP1 accumulation) was inactive: 5.59%. `N/C(=N\O)c1c(N)no[n+]1[O-]` was tested, and the inhibition (IP1 accumulation) was inactive: -11%. `c1ccc(CN2CCC(Nc3ccccc3)CC2)cc1` was tested, and the inhibition (IP1 accumulation) was inactive: 0.974%. In the case of `Fc1ccccc1NC1CCN(Cc2ccccc2)CC1`, the inhibition (IP1 accumulation) is reported as inactive: 6.65%. `CCC(CO)(C(=O)OC1CN2CCC1CC2)c1ccccc1` (centres undefined) was tested, and the inhibition (IP1 accumulation) was inactive: 17.3%.
